Measurements: PubChem BioAssay (NCATS)
This is a selection; strong and weak results do not stand in their true shares. Results filed as inconclusive are left out. Active and inactive are the calls of the source. Unless noted, calls follow the shape of the dose curve; as a rule, active = well fitted curve in the direction sought with a large enough effect; inconclusive = small, poorly fitted or top-dose-only effect, or another doubt; inactive = no such curve, though single readings can be large; an effect the other way counts as inactive or inconclusive.

Chains of the proteins cited; added tags and fusions are not shown. Lines headed by an entry give the natural chain unless they say otherwise; changes in a name come on top.
UniProt O94782: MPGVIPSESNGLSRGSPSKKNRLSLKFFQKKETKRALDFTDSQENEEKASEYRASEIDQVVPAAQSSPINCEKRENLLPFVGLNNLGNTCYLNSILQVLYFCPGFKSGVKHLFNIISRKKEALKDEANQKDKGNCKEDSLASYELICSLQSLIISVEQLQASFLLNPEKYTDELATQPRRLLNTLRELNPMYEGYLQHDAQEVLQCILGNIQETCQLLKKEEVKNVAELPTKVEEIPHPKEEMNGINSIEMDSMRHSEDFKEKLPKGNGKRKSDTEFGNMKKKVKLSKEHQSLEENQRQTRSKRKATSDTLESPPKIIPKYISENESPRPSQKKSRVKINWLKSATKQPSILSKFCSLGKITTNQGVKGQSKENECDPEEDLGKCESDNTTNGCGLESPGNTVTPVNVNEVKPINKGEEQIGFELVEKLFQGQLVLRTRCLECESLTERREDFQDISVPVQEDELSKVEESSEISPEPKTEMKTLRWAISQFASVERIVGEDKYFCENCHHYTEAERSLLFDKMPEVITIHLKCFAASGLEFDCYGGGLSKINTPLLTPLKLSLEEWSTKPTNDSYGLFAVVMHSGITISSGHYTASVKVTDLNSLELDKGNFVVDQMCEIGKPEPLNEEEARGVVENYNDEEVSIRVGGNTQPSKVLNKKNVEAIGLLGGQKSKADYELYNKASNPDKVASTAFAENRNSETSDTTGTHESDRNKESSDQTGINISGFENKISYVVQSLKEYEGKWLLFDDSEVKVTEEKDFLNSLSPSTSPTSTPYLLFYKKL
UniProt O94925: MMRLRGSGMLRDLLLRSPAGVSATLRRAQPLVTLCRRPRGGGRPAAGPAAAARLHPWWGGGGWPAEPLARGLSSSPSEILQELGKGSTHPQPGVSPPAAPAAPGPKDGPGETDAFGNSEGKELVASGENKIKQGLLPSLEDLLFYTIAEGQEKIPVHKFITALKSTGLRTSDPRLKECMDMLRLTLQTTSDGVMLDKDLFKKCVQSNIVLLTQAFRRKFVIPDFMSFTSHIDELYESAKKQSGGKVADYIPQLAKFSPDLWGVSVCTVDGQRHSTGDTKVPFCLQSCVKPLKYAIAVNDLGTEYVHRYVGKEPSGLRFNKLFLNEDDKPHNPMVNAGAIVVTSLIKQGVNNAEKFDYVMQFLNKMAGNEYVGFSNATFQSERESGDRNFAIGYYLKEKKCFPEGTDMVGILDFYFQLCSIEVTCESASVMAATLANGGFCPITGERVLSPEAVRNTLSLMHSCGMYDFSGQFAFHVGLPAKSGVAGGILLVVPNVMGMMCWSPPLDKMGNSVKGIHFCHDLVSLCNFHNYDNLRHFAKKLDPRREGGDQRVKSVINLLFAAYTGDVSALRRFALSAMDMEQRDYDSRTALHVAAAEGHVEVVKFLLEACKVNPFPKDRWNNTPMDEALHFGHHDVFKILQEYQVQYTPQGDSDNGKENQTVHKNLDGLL
UniProt P43220, whole entry, looked up: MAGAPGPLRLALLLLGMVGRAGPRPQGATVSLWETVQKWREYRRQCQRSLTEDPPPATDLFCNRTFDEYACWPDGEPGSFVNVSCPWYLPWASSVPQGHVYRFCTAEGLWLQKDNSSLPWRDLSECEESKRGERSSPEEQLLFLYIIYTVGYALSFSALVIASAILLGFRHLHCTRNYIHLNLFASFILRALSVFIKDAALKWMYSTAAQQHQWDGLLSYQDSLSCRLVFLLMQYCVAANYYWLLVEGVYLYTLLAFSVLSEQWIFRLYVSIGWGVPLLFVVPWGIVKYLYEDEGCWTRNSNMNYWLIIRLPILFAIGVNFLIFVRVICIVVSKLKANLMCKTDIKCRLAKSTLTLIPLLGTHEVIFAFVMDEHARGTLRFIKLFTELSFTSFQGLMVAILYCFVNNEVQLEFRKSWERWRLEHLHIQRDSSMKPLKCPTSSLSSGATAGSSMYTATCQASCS
UniProt P15289: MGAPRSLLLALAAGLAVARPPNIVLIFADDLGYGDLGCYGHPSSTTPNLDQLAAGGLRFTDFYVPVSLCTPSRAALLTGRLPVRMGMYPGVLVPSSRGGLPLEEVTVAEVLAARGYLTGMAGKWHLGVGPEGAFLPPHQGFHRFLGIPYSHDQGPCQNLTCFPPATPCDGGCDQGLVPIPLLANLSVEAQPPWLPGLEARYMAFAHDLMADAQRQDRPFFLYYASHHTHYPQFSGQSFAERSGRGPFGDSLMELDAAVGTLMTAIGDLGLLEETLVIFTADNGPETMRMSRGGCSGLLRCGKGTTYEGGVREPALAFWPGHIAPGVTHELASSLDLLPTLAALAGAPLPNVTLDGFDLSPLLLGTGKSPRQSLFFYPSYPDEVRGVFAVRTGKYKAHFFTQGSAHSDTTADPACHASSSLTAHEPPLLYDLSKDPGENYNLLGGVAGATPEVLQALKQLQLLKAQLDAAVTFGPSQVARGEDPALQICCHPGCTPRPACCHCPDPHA
UniProt P35557, whole entry, looked up: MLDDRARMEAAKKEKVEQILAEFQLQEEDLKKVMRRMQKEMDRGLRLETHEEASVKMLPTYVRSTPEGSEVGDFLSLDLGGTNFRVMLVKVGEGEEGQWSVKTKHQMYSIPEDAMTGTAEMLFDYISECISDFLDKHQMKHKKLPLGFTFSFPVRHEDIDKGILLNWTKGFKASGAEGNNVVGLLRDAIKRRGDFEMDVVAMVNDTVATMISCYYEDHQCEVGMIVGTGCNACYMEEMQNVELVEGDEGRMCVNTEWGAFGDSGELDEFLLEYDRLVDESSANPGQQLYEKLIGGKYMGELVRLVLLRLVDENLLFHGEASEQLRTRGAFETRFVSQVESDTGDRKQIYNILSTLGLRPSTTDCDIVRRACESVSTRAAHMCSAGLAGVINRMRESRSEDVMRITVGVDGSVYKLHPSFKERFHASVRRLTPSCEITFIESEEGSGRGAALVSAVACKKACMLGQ
UniProt Q14397: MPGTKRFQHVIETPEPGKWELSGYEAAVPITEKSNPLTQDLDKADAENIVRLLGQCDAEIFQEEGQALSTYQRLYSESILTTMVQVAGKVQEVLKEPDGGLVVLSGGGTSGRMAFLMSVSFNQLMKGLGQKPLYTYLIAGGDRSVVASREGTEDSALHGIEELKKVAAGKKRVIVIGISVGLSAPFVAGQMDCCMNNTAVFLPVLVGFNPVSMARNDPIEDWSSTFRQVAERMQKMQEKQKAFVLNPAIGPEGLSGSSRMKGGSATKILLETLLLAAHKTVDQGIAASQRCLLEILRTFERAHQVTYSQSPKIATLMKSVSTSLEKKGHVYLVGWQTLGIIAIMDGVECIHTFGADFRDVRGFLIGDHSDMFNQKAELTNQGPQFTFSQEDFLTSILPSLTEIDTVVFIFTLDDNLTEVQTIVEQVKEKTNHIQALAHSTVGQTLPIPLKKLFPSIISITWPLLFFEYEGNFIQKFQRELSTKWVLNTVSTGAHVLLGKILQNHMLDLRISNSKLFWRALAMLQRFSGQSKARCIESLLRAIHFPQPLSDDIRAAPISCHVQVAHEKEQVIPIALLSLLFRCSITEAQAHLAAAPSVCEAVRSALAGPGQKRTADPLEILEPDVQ

What was measured:
[1] = biological target: Ubiquitin carboxyl-terminal hydrolase 1 (Homo sapiens) (UniProt O94782); assay: Inhibitors of USP1/UAF1: Pilot qHTS (AID 504865); settings: purified USP1/UAF1, Ub-rhodamine cleavage fluorescence; at 114 µM (top of the series);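 also: rhodamine fluorescence freed from ubiquitin-rhodamine substrate followed over time; top concentration of the series differs between compounds; % is scaled to controls: 0 for no effect and ±100 for the full control effect; nearly all actives have a fitted effect of over 35% in size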
[2] = qHTS for Inhibitors of ATXN expression: Validation of Cytotoxic Assay (AID 588349); settings: cytotoxicity counter-screen for ATXN expression inhibitors, cell viability; at 57.1 µM (top of the series);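 also: cells exposed to compound for 72 hr; % is scaled to controls: 0 for no effect and ±100 for the full control effect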
Method in brief: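 HEK293, compound dose series, 72 hr / 37 degrees C; viability via CellTiter Glo (intracellular ATP).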

[3] = biological target: Glutaminase kidney isoform, mitochondrial (Homo sapiens) (UniProt O94925); assay: qHTS for Inhibitors of Glutaminase (GLS): LOPAC Validation (AID 624146);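 also: glutamate product detected by oxidase and peroxidase coupled Amplex red fluorescence gain; % is scaled to controls: 0 for no effect and ±100 for the full control effect; nearly all actives have a fitted effect of over 60% in size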
Method in brief: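 Read-out is an Amplex red fluorescence increase coupled through glutamate oxidase and HRP, measured before and after 30 min room-temperature incubation. hKGA is in 45 mM KH2PO4 (pH 8.2) with 0.02% Tween-20; glutamine added as 1mM solution.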

[4] = biological target: Glucagon-like peptide 1 receptor (Homo sapiens) (UniProt P43220); assay: qHTS of GLP-1 Receptor Agonists: LOPAC Validation (AID 624148); settings: GLP-1R agonist cell assay; at 46.1 µM (top of the series);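 also: luminescence from a luciferase reporter switched on by cAMP; 0% is about no effect; higher luminescence signal means agonism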
Method in brief: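 Agonism scored as increased luciferase luminescence driven by cAMP in HEK293 clones carrying GLP-1R. Cells settled 12 hours, received compound for 4-6 hr at 37 deg C, 5% CO2, and were read after 12 min detection reagent at RT.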

[5] = qHTS of Nrf2 Activators: LOPAC Validation (AID 624149); settings: Nrf2/ARE reporter cell assay; at 46.1 µM (top of the series); also: 0% is about no effect
Method in brief: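 ARE reporter activation measured in AREc32 firefly luciferase cells after 24 hr compound exposure; Steady-Glo luminescence.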

[6] = HTS Assay for Allosteric Antagonists of the Human D2 Dopamine Receptor: Hit Validation in HTRF (AID 624455); settings: D2 receptor cells, HTRF cAMP read-out, antagonist mode; at 46.1 µM (top of the series);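 also: stable D1 dopamine receptor cell line scored for blocking the D1 response; % is scaled to controls: 0 for no effect and ±100 for the full control effect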
Method in brief: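 Signal from an HTRF read-out in D1-expressing stable cells gave hit activity as inhibition of the D1 response.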

[7] = biological target: Arylsulfatase A (Homo sapiens) (UniProt P15289); assay: qHTS screen for enhancers of Arylsulfatase A (ASA1): LOPAC Validation Assay (AID 720538); settings: ASA enzyme activity, LOPAC qHTS enhancer assay; activity change, positive = activation: at 57.5 µM (top of the series); also: 0% is about no effect
Method in brief: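 Enhancer assay in patient-derived MLD fibroblasts carrying ASA-I179S: 48 h compound exposure at 37 C, then 14 h room-temperature pNCS turnover (0.5 mM final) in lysis buffer. Read by fluorescence at 525/598 nm after NaOH stop.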

[8] = qHTS for compounds that reverse cellular toxicity of Amyloid beta (A-beta) peptide in yeast: LOPAC Validation Assay (AID 720559); settings: yeast expressing A-beta; at 46.1 µM (top of the series);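 also: plate controls were DMSO for no effect and equimolar ferric chloride plus clioquinol rescue for full effect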
Method in brief: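 Rescue of A-beta toxicity was scored as yeast growth by 600 nm absorbance after 48 hr at 30 C with compound. Normalization used DMSO (negative) and equimolar ferric chloride plus clioquinol (positive).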

[9] = qHTS for Activators of Parkin Expression: LOPAC Validation Assay (FLuc Reporter) (AID 720573;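 also: 0% = DMSO and 100% = positive control compounds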); settings: Cell line, PRKN promoter firefly luciferase reporter, vehicle wells = 0, positive control = 100%; at 46.1 µM (top of the series)
Method in brief: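 FLuc signal from Parkin-promoter coincidence reporter neuronal cells, normalized to DMSO and positive control (100%). Cells (1,500/well) pre-incubated 24 h, then exposed to LOPAC compounds in 7-point dose response for 24 h at 37 C, 5% CO2.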

[10] = biological target: T1, Hexokinase-4 (Homo sapiens) + Glucokinase regulatory protein (Homo sapiens) (UniProt P35557+Q14397); assay: qHTS assay for inhibitors of recombinant human GCK-GKRP interaction: Diaphorase-coupled assay (AID 743205); settings: G6PDH/diaphorase resorufin fluorescence; at 57.5 µM (top of the series)
Method in brief: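 A kinetic fluorescence read (Ex 525/Em 590 nm, every minute for 30 minutes) tracked resorufin from a G6PDH-diaphorase coupled GCK reaction. It contained 10 nM GST-GCK, 10 nM FLAG-GKRP, 5 mM glucose, 0.4 mM ATP in Hepes pH 7.6. Normalized to with/without-enzyme DMSO controls.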

[11] = biological target: T1, Hexokinase-4 (Homo sapiens) + Glucokinase regulatory protein (Homo sapiens); assay: qHTS assay for inhibitors of recombinant human GCK-GKRP interaction: ADP-Glo assay (AID 743206); settings: ADP-Glo luminescence, 60 min, 0% = vehicle-only wells with enzyme present; at 76.9 µM (top of the series);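 also: plate controls were DMSO plus enzyme for no effect and no enzyme for full effect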
Method in brief: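 GST-GCK and FLAG-GKRP (15 nM each in the dispensed mix, with 2 uM S6P) react with 0.4 mM ATP and 5 mM glucose (final) in Hepes pH 7.6 for 60 min at room temperature. ADP is measured by ADP-Glo luminescence.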

[12] = biological target: T1, Hexokinase-4 (Homo sapiens) + Glucokinase regulatory protein (Homo sapiens); assay: qHTS assay for inhibitors of recombinant human GCK-GKRP interaction: HTRF assay (AID 743207); settings: recombinant GCK-GKRP HTRF binding, 60 min, with sorbitol-6-phosphate; at 57.5 µM (top of the series);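 also: 0% = DMSO with GCK present and -100% = DMSO wells lacking GCK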
Method in brief: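 After 60 min equilibration at room temperature with anti-FLAG XL665 and anti-GST antibodies, FRET ratio (665/615 nm, excitation 320 nm) was read. Proteins: GST-GCK and FLAG-GKRP, each 5 nM, plus 2 uM S6P, pH 7.1 buffer; GCK-free wells define minimum signal.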

[13] = qHTS Assay for Identifying Gametocytocidal Compounds (AID 743244);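 also: % is scaled to controls: 0 for no effect and ±100 for the full control effect; actives lower the fluorescent signal which means gametocytes are killed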; settings: P. falciparum 3D7 stage III-V gametocytes, alamarBlue, 72 h; max response: hits give low values
[14] = Natriuretic polypeptide receptor (hNpr1) antagonism - Pilot counterscreen GloSensor control cell line (AID 1347045; calls by dose curve; also: % is scaled to controls: 0 for no effect and ±100 for the full control effect); settings: GloSensor cAMP control cell line, luminescence counterscreen; at 38.3 µM (top of the series)
Method in brief: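 This counterscreen uses HEK293 cells expressing the GIP/pGS-40F cGMP biosensor. Compound-treated cells are challenged with 50 uM sodium nitroprusside, and the luciferase signal is compared before and after stimulation.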

CN(C(=O)Cc1ccc(Cl)c(Cl)c1)[C@@H]1CCCC[C@@H]1N1CCCC1
inactive: activity change, negative = inhibition [1] 1.6% | activity change, negative = cytotoxicity [2] -25.9% | Potency [3] | activation [4] -1.25% | activation [5] -1.6% | activity, negative = inhibition [6] -3.08% | activity change, positive = activation [7] -1.12% | growth rescue, positive = activation [8] -6.16% | activation [9] 3.41% | activity change, positive = activation [10] -6.23% | activity, positive = activation [11] -2.38% | activity change, negative = inhibition [12] -1.48% | max response [13] 16.7% | activity change, negative = inhibition [14] -4.99%
